# Assays:
# The chains behind the UniProt entries cited, without tags or fusion partners. Residues count along the entry.
# UniProt P43220, 24-463: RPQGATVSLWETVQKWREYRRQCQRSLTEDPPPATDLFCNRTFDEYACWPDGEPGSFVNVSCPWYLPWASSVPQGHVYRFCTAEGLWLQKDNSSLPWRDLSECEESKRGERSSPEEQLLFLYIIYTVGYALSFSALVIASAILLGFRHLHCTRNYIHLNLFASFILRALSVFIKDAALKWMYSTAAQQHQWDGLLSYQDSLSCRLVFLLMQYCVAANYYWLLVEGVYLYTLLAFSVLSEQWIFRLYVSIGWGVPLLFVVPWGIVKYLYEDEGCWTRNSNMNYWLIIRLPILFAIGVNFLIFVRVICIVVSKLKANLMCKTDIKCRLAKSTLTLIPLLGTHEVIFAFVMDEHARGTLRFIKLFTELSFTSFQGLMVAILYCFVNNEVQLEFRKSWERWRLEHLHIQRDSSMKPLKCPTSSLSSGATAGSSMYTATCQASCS
# [1] = Protraction after s.c. administration: plasma concentration in pigs determined by RIA; format: in vivo; details: 0.5 nmol/kg, healthy pigs, n=2
# Procedure: The protraction of a number GLP-1 derivatives of the invention was determined by monitoring the concentration thereof in plasma after sc administration to healthy pigs, using the method described below. […]. The protraction of other GLP-1 derivatives of the invention can be determined in the same way.
# Pigs (50% Duroc, 25% Yorkshire, 25% Danish Landrace, app 40 kg) were fasted from the beginning of the experiment. To each pig 0.5 nmol of test compound per kg body weight was administered in a 50 µM isotonic solution (5 mM phosphate, pH 7.4, 0.02% Tween®-20 (Merck), 45 mg/ml mannitol (pyrogen free, Novo Nordisk). Blood samples were drawn from a catheter in vena jugularis at the hours indicated in Table 1. 5 ml of the blood samples were poured into chilled glasses containing 175 µl of the following solution: 0.18 M EDTA, 1500 KIE/ml aprotinin (Novo Nordisk) and 3% bacitracin (Sigma), pH 7.4. Within 30 min, the samples were centrifuged for 10 min at 5-6000*g. Temperature was kept at 4°C. The supernatant was pipetted into different glasses and kept at minus 20°C until use.
# […]. The cross reactivities were less than 1% with GLP-1(1-37) and GLP-1(8-36)amide and < 0.1% with GLP-1 (9-37), GLP-1(10-36)amide and GLP-1 (11-36)amide. The entire procedure was carried out at 4°C.
# The assay was carried out as follows: 100 µl plasma was mixed with 271 µl 96% ethanol, mixed using a vortex mixer and centrifuged at 2600*g for 30 min. The supernatant was decanted into Minisorp tubes and evaporated completely (Savant Speedvac AS290). The evaporation residue was reconstituted in the assay buffer consisting of 80 mM NaH2PO4/Na2HPO4, 0.1 % HSA (Orpha 20/21, Behring), 10 mM EDTA, 0.6 mM thiomersal (Sigma), pH 7.5. Samples were reconstituted in volumes suitable for their expected concentrations, and were allowed to reconstitute for 30 min. To 300 µl sample, 100 µl antibody solution in dilution buffer containing 40 mM NaH2PO4/Na2HPO4, 0.1 % HSA, 0.6 mM thiomersal, pH 7.5, was added. A non-specific sample was prepared by mixing 300 µl buffer with 100 µl dilution buffer. Individual standards were prepared from freeze dried stocks, dissolved in 300 µl assay buffer. All samples were pre-incubated in Minisorp tubes with antibody as described above for 72 h. 200 µl tracer in dilution buffer containing 6-7000 CPM was added, samples were mixed and incubated for 48 h. 1.5 ml of a suspension of 200 ml per litre of heparin-stabilised bovine plasma and 18 g per litre of activated carbon (Merck) in 40 mM NaH2PO4/Na2HPO4, 0.6 mM thiomersal, pH 7.5, was added to each tube. Before use, the suspension was mixed and allowed to stand for 2 h at 4°C. All samples were incubated for 1 h at 4°C and then centrifuged at 3400*g for 25 min. Immediately after the centrifugation, the supernatant was decanted and counted in a γ-counter. The concentration in the samples was calculated from individual standard curves. The following plasma concentrations were found, calculated as % of the maximum concentration for the individual compounds (n=2): Table 1
# [2] = molecular target: cloned human GLP-1 receptor (Homo sapiens, UniProt P43220); details: cAMP formation; membrane preparation incubated 2 h at 37°C; 0.1 % human serum albumin
# [3] = in humans; cited from earlier work
# [4] = 0.75 hours after sc. administration
# [5] = 1 hour after sc. administration
# [6] = 2 hours after sc. administration
# [7] = 4 hours after sc. administration
# [8] = 6 hours after sc. administration
# [9] = 8 hours after sc. administration
# [10] = 10 hours after sc. administration
# [11] = 24 hours after sc. administration
# [12] = 12 hours after sc. administration
substance,measurement,setting,value
"Arg^26,34Lys^36 (N^ε-(ω-carboxyheptadecanoyl))-GLP-1 (7-36)-OH [Example 14]","plasma concentration, calculated as % of the maximum concentration for the individual compound",[1]; [4],18%
same,"plasma concentration, calculated as % of the maximum concentration for the individual compound",[1]; [5],25%
same,"plasma concentration, calculated as % of the maximum concentration for the individual compound",[1]; [6],32%
same,"plasma concentration, calculated as % of the maximum concentration for the individual compound",[1]; [7],47%
same,"plasma concentration, calculated as % of the maximum concentration for the individual compound",[1]; [8],98%
same,"plasma concentration, calculated as % of the maximum concentration for the individual compound",[1]; [9],83%
same,"plasma concentration, calculated as % of the maximum concentration for the individual compound",[1]; [10],97%
same,"plasma concentration, calculated as % of the maximum concentration for the individual compound",[1]; [11],100%
"Arg^26,34Lys^36 (N^ε-(ω-carboxyheptadecanoyl))-GLP-1 (7-37)-OH [Example 12]","plasma concentration, calculated as % of the maximum concentration for the individual compound",[1]; [4],36%
same,"plasma concentration, calculated as % of the maximum concentration for the individual compound",[1]; [5],54%
same,"plasma concentration, calculated as % of the maximum concentration for the individual compound",[1]; [6],65%
same,"plasma concentration, calculated as % of the maximum concentration for the individual compound",[1]; [7],94%
same,"plasma concentration, calculated as % of the maximum concentration for the individual compound",[1]; [8],80%
same,"plasma concentration, calculated as % of the maximum concentration for the individual compound",[1]; [9],100%
same,"plasma concentration, calculated as % of the maximum concentration for the individual compound",[1]; [10],85%
same,"plasma concentration, calculated as % of the maximum concentration for the individual compound",[1]; [11],93%
"Arg^26,34Lys^38(N^ε-(γ-glutamyl(N^α-tetradecanoyl)))-GLP-1 (7-38)-OH [Example 38]","plasma concentration, calculated as % of the maximum concentration for the individual compound",[1]; [4],60%
same,"plasma concentration, calculated as % of the maximum concentration for the individual compound",[1]; [5],53%
same,"plasma concentration, calculated as % of the maximum concentration for the individual compound",[1]; [6],100%
same,"plasma concentration, calculated as % of the maximum concentration for the individual compound",[1]; [7],66%
same,"plasma concentration, calculated as % of the maximum concentration for the individual compound",[1]; [8],48%
same,"plasma concentration, calculated as % of the maximum concentration for the individual compound",[1]; [9],39%
same,"plasma concentration, calculated as % of the maximum concentration for the individual compound",[1]; [10],25%
same,"plasma concentration, calculated as % of the maximum concentration for the individual compound",[1]; [12],29%
same,"plasma concentration, calculated as % of the maximum concentration for the individual compound",[1]; [11],0%
"Arg^26,34Lys^38(N^ε-(ω-carboxyheptadecanoyl))-GLP-1 (7-38)-OH [Example 13]","plasma concentration, calculated as % of the maximum concentration for the individual compound",[1]; [4],15%
same,"plasma concentration, calculated as % of the maximum concentration for the individual compound",[1]; [5],22%
same,"plasma concentration, calculated as % of the maximum concentration for the individual compound",[1]; [6],38%
same,"plasma concentration, calculated as % of the maximum concentration for the individual compound",[1]; [7],59%
same,"plasma concentration, calculated as % of the maximum concentration for the individual compound",[1]; [8],97%
same,"plasma concentration, calculated as % of the maximum concentration for the individual compound",[1]; [9],85%
same,"plasma concentration, calculated as % of the maximum concentration for the individual compound",[1]; [10],100%
same,"plasma concentration, calculated as % of the maximum concentration for the individual compound",[1]; [11],76%
"Arg^26,34Lys^38(N^ε-(ω-carboxypentadecanoyl))-GLP-1 (7-38)-OH [Example 34]","plasma concentration, calculated as % of the maximum concentration for the individual compound",[1]; [4],19%
same,"plasma concentration, calculated as % of the maximum concentration for the individual compound",[1]; [5],32%
same,"plasma concentration, calculated as % of the maximum concentration for the individual compound",[1]; [6],44%
same,"plasma concentration, calculated as % of the maximum concentration for the individual compound",[1]; [7],84%
same,"plasma concentration, calculated as % of the maximum concentration for the individual compound",[1]; [8],59%
same,"plasma concentration, calculated as % of the maximum concentration for the individual compound",[1]; [9],66%
same,"plasma concentration, calculated as % of the maximum concentration for the individual compound",[1]; [10],83%
same,"plasma concentration, calculated as % of the maximum concentration for the individual compound",[1]; [12],84%
same,"plasma concentration, calculated as % of the maximum concentration for the individual compound",[1]; [11],100%
Arg^34Lys^26 (N^ε-(ω-carboxyheptadecanoyl))-GLP-1 (7-37)-OH [Example 11],"plasma concentration, calculated as % of the maximum concentration for the individual compound",[1]; [4],24%
same,"plasma concentration, calculated as % of the maximum concentration for the individual compound",[1]; [5],47%
same,"plasma concentration, calculated as % of the maximum concentration for the individual compound",[1]; [6],59%
same,"plasma concentration, calculated as % of the maximum concentration for the individual compound",[1]; [7],71%
same,"plasma concentration, calculated as % of the maximum concentration for the individual compound",[1]; [8],100%
same,"plasma concentration, calculated as % of the maximum concentration for the individual compound",[1]; [9],94%
same,"plasma concentration, calculated as % of the maximum concentration for the individual compound",[1]; [10],100%
same,"plasma concentration, calculated as % of the maximum concentration for the individual compound",[1]; [11],94%
Arg^34Lys^26(N^ε-(γ-glutamyl(N^α-hexadecanoyl)))-GLP-1(7-37)-OH [Example 37],"plasma concentration, calculated as % of the maximum concentration for the individual compound",[1]; [5],26%
same,"plasma concentration, calculated as % of the maximum concentration for the individual compound",[1]; [6],38%
same,"plasma concentration, calculated as % of the maximum concentration for the individual compound",[1]; [7],97%
same,"plasma concentration, calculated as % of the maximum concentration for the individual compound",[1]; [8],100%
same,"plasma concentration, calculated as % of the maximum concentration for the individual compound",[1]; [9],71%
same,"plasma concentration, calculated as % of the maximum concentration for the individual compound",[1]; [10],81%
same,"plasma concentration, calculated as % of the maximum concentration for the individual compound",[1]; [12],80%
same,"plasma concentration, calculated as % of the maximum concentration for the individual compound",[1]; [11],45%
same,EC50,[2],0.06 nM
"Lys^26,34-bis(N^ε-(ω-carboxytridecanoyl))-GLP-1 (7-37)-OH [Example 32]","plasma concentration, calculated as % of the maximum concentration for the individual compound",[1]; [4],55%
same,"plasma concentration, calculated as % of the maximum concentration for the individual compound",[1]; [5],53%
same,"plasma concentration, calculated as % of the maximum concentration for the individual compound",[1]; [6],90%
same,"plasma concentration, calculated as % of the maximum concentration for the individual compound",[1]; [7],83%
same,"plasma concentration, calculated as % of the maximum concentration for the individual compound",[1]; [8],88%
same,"plasma concentration, calculated as % of the maximum concentration for the individual compound",[1]; [9],70%
same,"plasma concentration, calculated as % of the maximum concentration for the individual compound",[1]; [10],98%
same,"plasma concentration, calculated as % of the maximum concentration for the individual compound",[1]; [12],100%
same,"plasma concentration, calculated as % of the maximum concentration for the individual compound",[1]; [11],100%
"Lys^26,34bis(N^ε-(ω-carboxyundecanoyl))-GLP-1(7-37)-OH [Example 17]","plasma concentration, calculated as % of the maximum concentration for the individual compound",[1]; [4],76%
same,"plasma concentration, calculated as % of the maximum concentration for the individual compound",[1]; [5],71%
same,"plasma concentration, calculated as % of the maximum concentration for the individual compound",[1]; [6],91%
same,"plasma concentration, calculated as % of the maximum concentration for the individual compound",[1]; [7],100%
same,"plasma concentration, calculated as % of the maximum concentration for the individual compound",[1]; [8],84%
same,"plasma concentration, calculated as % of the maximum concentration for the individual compound",[1]; [9],68%
same,"plasma concentration, calculated as % of the maximum concentration for the individual compound",[1]; [10],30%
same,"plasma concentration, calculated as % of the maximum concentration for the individual compound",[1]; [11],9%
glucagon-like peptide-1 [GLP-1],plasma half-life,[3],2 min

# Source: patent EP0944648B1, “GLP-1 DERIVATIVES” (NOVO NORDISK A/S, priority 1996, dated 1998)
